# Data from patent US3998790A, “Phenoxy-hydroxypropylamines, their preparation, and method and pharmaceutical preparations for treating cardiovascular diseases” (priority 1974, dated 1976).
# Assay: in vivo
# Conditions: mouse, ip
# Description: Compounds prepared according to the examples were evaluated for intrinsic activity and blocking effect on heart rate and: peripheral vasodilator response to isoprenaline in the cat. The acute LD50 in mice was evaluated. Alprenolol was used as a reference substance.
compound,measurement,value
"C=CCc1ccccc1OCC(O)CNC(C)C (stereo not shown) [alprenolol, reference compound]",LD50,100 mg/kg
